# Experimental data reported in patent publication US20260382605A1, “REVERSIBLE MACROCYCLIC KINASE INHIBITORS” (published 2026).
# Chains of the proteins cited; added tags and fusions are not shown. Residues count along the entry.
# UniProt Q96GD4, whole entry: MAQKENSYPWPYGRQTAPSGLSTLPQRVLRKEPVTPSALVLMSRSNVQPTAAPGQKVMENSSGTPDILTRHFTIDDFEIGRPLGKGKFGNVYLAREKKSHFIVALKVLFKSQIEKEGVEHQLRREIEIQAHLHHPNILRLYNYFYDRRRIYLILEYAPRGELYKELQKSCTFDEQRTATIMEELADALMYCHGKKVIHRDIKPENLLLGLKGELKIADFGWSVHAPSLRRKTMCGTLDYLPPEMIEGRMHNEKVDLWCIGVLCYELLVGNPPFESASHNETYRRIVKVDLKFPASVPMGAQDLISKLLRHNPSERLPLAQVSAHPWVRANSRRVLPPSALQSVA
# UniProt Q02750, whole entry: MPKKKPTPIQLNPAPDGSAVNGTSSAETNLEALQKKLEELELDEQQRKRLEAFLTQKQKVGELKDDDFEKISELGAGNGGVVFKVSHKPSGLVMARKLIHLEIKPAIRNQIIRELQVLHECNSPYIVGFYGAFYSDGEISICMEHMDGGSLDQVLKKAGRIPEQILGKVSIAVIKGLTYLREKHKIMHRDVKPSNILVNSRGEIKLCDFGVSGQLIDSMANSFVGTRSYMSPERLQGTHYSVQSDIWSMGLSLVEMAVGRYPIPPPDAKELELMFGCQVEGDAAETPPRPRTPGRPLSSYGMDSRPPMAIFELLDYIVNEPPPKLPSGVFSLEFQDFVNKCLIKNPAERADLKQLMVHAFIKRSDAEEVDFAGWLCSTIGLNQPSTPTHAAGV
# UniProt P06239, whole entry: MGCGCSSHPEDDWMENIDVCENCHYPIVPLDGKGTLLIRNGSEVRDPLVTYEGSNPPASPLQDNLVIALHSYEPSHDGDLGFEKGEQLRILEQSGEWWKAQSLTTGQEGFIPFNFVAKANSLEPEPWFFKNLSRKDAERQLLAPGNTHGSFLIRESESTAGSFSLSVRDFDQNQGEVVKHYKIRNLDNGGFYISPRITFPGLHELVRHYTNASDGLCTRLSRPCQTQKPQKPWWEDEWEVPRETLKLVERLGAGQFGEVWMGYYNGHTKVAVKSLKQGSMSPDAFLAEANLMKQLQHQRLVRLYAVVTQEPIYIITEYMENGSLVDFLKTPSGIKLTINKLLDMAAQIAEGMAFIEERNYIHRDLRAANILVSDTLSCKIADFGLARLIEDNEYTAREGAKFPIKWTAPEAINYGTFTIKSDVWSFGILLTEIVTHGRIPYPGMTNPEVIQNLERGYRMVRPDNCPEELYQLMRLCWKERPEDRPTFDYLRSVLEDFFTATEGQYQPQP
# UniProt P07948, whole entry: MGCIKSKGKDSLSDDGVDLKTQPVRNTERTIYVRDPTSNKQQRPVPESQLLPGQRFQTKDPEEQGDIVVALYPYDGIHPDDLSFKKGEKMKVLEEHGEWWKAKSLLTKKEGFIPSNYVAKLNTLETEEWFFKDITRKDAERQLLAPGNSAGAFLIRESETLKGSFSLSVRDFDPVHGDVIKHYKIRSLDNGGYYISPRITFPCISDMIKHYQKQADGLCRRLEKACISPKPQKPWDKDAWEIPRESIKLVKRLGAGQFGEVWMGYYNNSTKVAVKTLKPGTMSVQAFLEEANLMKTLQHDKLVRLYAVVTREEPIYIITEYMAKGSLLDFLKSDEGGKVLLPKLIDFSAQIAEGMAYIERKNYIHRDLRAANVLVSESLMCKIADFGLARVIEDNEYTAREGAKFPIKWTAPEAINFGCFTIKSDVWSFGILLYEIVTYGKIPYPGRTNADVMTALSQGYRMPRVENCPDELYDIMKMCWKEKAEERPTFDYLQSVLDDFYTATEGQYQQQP
# UniProt P35968, 20-1356 limits assumed: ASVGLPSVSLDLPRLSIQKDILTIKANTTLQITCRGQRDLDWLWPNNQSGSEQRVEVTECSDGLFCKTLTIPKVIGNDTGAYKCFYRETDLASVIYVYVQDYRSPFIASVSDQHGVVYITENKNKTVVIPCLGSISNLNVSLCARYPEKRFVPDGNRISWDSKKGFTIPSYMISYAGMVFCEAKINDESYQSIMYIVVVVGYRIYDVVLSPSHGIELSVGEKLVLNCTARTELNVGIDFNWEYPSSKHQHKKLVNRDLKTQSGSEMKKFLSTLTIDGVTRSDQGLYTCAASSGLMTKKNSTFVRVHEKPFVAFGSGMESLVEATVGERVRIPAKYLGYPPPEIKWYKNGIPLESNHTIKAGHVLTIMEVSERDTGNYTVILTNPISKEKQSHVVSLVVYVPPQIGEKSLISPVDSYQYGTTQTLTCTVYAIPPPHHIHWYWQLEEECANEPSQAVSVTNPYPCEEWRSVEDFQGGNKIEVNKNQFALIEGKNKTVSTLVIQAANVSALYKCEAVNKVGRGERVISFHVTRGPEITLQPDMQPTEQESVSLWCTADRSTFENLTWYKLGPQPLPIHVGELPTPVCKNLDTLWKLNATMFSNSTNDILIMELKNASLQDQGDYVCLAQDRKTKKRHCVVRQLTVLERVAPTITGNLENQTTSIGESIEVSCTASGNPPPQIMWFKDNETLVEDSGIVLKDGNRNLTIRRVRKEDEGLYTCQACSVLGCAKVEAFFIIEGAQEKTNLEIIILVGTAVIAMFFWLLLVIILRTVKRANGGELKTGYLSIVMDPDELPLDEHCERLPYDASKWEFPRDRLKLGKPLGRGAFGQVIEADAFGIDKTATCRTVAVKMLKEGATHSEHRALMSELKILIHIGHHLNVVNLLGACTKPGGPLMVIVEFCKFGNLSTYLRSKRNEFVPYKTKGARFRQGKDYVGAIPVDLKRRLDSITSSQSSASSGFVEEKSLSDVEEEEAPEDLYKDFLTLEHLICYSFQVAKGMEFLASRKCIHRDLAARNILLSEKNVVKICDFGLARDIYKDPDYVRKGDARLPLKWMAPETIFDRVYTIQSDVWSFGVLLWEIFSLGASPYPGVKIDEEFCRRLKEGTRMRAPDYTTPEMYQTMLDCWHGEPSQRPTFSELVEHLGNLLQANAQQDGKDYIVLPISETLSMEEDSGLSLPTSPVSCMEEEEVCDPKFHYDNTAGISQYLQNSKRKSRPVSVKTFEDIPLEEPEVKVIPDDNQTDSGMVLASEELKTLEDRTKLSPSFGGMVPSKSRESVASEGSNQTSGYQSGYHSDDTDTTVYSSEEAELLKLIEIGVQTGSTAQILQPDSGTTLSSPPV
# Tests used:
# [1] = tested on: MV4-11 acute myelogenous leukemia cells; assay: Cell proliferation assay MV4-11; conditions: read-out: IC50 value, MV4-11 cells, 72 hours
# Experimental: MV4-11 acute myelogenous leukemia cells were purchased from American Type Culture Collection (cat. no. CRL-9591, ATCC). Frozen stocks were thawed and cells were diluted in IMDM cell culture medium (cat. no. 31980022, Life Technologies), supplemented with 10% (v/v) bovine calf serum and 1% penicillin/streptavidin. 1600 cells per well (in 45 μl) were seeded in a white 384-well culture plate (cat. no. 781080, Greiner Bio-One) and allowed to rest for 24 hours at 37 °C, 95% humidity, and 5% CO2. 5 μl compound solution was added to the cells and incubation was continued for 72 hours (3 days), followed by addition of 24 μl ATPlite 1Step™ (PerkinElmer, Groningen, The Netherlands) solution was added to each well. Luminescence was recorded on an Envision multimode reader. The cell signal at the start of incubation was recorded separately in order to distinguish between cell population growth and cell death. In addition, maximum growth was determined by incubation of a duplicate without compound in the presence of 0.3% DMSO. Percentage growth was used as the main y-axis signal. IC50s were fitted by non-linear regression using IDBS XLfit™ 5 using a 4-parameter logistic curve, yielding a maximum signal, minimum signal, hill-parameter and IC50.
# [2] = target: AurB (Homo sapiens, UniProt Q96GD4); assay: Binding kinetics assay (surface plasmon resonance) AUR-B; conditions: SPR, 22 °C
# Excerpt: (§1) Binding Kinetics Assay wt-BTK, BTK C481S, LCK, FGFR1, FLT3, PDGFR-β, FMS, LYN, MEK1, AUR-B. ITK. VEGFR, EGFR, FGFR3, AXL, c-MET, SRC, YES, ABL, RET and IGFR1 (Surface Plasmon Resonance)
# (§2) Streptavidin-coated chips (Cat. No. BR100531), disposables and maintenance kits for Biacore were purchased from Cytiva (Eindhoven, The Netherlands). Biotinylated wt-BTK enzym (Carna Biosciences, cat. no. 08-480-20N), BTK C481S (Carna Biosciences, cat. no. 08-417-20N), LCK (Carna Biosciences, cat. no. 08-470-20N), FGFR1 (Carna Biosciences, cat. no. 08-435-20N), FLT3 (Carna Biosciences, cat. no. 08-454-20N), PDGFR-β (Carna Biosciences, cat. no. 08-458-20N), FMS (Carna Biosciences, cat. no. 08-455-20N), LYN (Carna Biosciences, cat. no. 08-471-20N), MEK1 (Carna Biosciences, cat. no. 07-441-10-20N), AUR-B (Carna Biosciences, cat. no. 05-402-21N), ITK (Carna Biosciences, cat. no. 08-481-20N), VEGFR (Carna Biosciences, cat. no. 08-491-20N), EGFR (Carna Biosciences, cat. no. 08-415-20N), FGFR3 (Carna Biosciences, cat. no. 08-433-20N), AXL (Carna Biosciences, cat. no. 08-407-20N), c-MET (Carna Biosciences, cat. no. 08-451-20N), SRC (Carna Biosciences, cat. no. 08-473-20N), YES (Carna Biosciences, cat. no. 08-475-20N), ABL (Carna Biosciences, cat. no. 08-401-20N), RET (Carna Biosciences, cat. no. 08-459-20N) or IGFR1 (Carna Biosciences, cat. no. 08-441-20N) were immobilized on a streptavidin-coated chip to a level of about 8000 resonance units (RU) using Biacore buffer (50 mM Tris pH 7.5, 0.05% (v/v) Tween-20, 150 mM NaCl and 5 mM MgCl2)+1 mM TCEP. Remaining streptavidin was blocked with biocytin. Immobilization was performed at 4 °C. Subsequent assay steps were conducted at 22 °C. After changing buffer to Biacore buffer with 1% (v/v) dimethylsulfoxide (DMSO), a pre-run was performed for a period of at least 30 min at a flow rate of 30 μl/min to obtain a stable surface. The kinetic constants of the compounds were determined with single cycle kinetics with five consecutive injections with an increasing compound concentration with ranges of 3.16-316 nM. Experiments were performed with an association time of 100 s per concentration and a dissociation time of 1200 s, except for compounds with a long target residence time, such as irreversible inhibitors, where dissociation time was increased. To circumvent problems of mass transport limitation, a flow rate of 30 μl/min was used. A blank run with the same conditions was performed before the compound was injected. The SPR sensorgrams were analyzed with Biacore Evaluation Software by using a method of double referencing. First the reference channel was subtracted from the channel containing immobilized protein. Subsequently, the reference curve obtained with buffer injections was subtracted. The resulting curve was fitted with a 1:1 binding model. Compounds that bound according to an induced fit model were fitted with a two-state reaction model. The kinetic constants (ka, ka, KD) of duplicates were geometrically averaged. Target residence time (τ) for the 1:1 binding model was calculated from the dissociation constant kd with the formula T=1/kd. Target residence for an induced fit model was calculated as described (Tummino and Copeland, 2008).
# [3] = target: MEK1 (Homo sapiens, UniProt Q02750); assay: Binding kinetics assay (surface plasmon resonance) MEK1; conditions: MEK1, SPR, 22 °C
# Experimental: as §1
# (§3) Streptavidin-coated chips (Cat. No. BR100531), disposables and maintenance kits for Biacore were purchased from Cytiva (Eindhoven, The Netherlands). […] The kinetic constants of the compounds were determined with single cycle kinetics with five consecutive injections with an increasing compound concentration with ranges of 3.16-316 nM. […] The SPR sensorgrams were analyzed with Biacore Evaluation Software by using a method of double referencing. […] Target residence time (τ) for the 1:1 binding model was calculated from the dissociation constant kd with the formula T=1/kd. Target residence for an induced fit model was calculated as described (Tummino and Copeland, 2008).
# [4] = target: LCK (Homo sapiens, UniProt P06239); assay: Binding kinetics assay (surface plasmon resonance) LCK; conditions: SPR, 22 °C
# [5] = target: Lyn (Homo sapiens, UniProt P07948); assay: Binding kinetics assay (surface plasmon resonance) LYN; conditions: SPR, 22 °C
# Experimental: as §1, §3
# [6] = target: VEGFr (Homo sapiens, UniProt P35968); assay: Binding kinetics assay (surface plasmon resonance) VEGFR; conditions: SPR, 22 °C
# Excerpt: as §1
# as §2, with “Immobilization was performed at 4 °C. Subsequent assay steps were conducted at 22 °C. After changing buffer to Biacore buffer with 1% (v/v) dimethylsulfoxide (DMSO), a pre-run was performed for a period of at least 30 min at a flow rate of 30 μl/min to obtain a stable surface.” left out, “Experiments were performed with an association time of 100 s per concentration and a dissociation time of 1200 s, except for compounds with a long target residence time, such as irreversible inhibitors, where dissociation time was increased. To circumvent problems of mass transport limitation, a flow rate of 30 μl/min was used. A blank run with the same conditions was performed before the compound was injected.” left out, “First the reference channel was subtracted from the channel containing immobilized protein. Subsequently, the reference curve obtained with buffer injections was subtracted. The resulting curve was fitted with a 1:1 binding model. Compounds that bound according to an induced fit model were fitted with a two-state reaction model. The kinetic constants (ka, ka, KD) of duplicates were geometrically averaged.” left out
Compound,IC50 [1] [nM],Kd [2] [nM],Target residence time Tau (τ) [2],Kd [3] [nM],Kd [4] [nM],Kd [5] [nM],Target residence time Tau (τ) [5],Kd [6] [nM],Target residence time Tau (τ) [6]
CC(C)(C)c1cc(NC(=O)Cc2ccc(-c3nc4n5c(cnc(N)c35)/C=C/CCOCCC(=O)N[C@@H]3CCC[C@@H]4C3)cc2)no1,< 50,,,,,,,,
Nc1ncc2c3c1c(-c1ccc(C(=O)Nc4cc(C(F)(F)F)ccn4)cc1)nn3[C@@H]1CCC[C@H](C1)NC(=O)[C@H]1CN(C/C=C/2)CCN1,,5 to 50,C (τ 3 h),< 5,< 5,< 5,B (τ between 1 and 3 h),< 5,B (τ between 1 and 3 h)
